Earlier results, collected in patent publication US20040175402A1, “Formulation” (priority 2001, published 2004).

Protein sequences, listed by entry. Tags and fused reporters are not part of them.
UniProt P03372, whole entry: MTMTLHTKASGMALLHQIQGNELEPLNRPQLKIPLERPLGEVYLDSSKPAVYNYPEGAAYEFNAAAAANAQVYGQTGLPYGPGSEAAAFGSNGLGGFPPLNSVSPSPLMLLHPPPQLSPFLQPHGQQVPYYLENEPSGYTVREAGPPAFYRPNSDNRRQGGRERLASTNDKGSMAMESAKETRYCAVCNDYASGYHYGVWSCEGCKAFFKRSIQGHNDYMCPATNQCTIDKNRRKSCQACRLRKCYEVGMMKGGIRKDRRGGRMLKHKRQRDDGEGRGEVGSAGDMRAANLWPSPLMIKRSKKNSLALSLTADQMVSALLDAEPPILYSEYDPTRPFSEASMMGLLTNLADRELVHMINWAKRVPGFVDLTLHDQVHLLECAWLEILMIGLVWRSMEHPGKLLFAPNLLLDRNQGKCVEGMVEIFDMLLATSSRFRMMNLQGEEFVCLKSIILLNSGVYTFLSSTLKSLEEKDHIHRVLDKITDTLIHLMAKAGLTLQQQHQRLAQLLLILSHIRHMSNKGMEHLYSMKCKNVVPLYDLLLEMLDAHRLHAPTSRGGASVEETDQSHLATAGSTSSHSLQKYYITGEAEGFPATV

Biological target: ER (Homo sapiens, UniProt P03372)
Details: compared with oestradiol

SMILES: C[C@]12CC[C@@H]3c4ccc(O)cc4C[C@@H](CCCCCCCCC[S+]([O-])CCCC(F)(F)C(F)(F)F)[C@H]3[C@@H]1CC[C@@H]2O (stereo partly drawn) [Fulvestrant, 7α-[9-(4,4,5,5,5-Pentafluoropentylsulphinyl)nonyl]oestra-1,3-5(10)-triene-3,17β-diol]
- affinity for ER: affinity similar to that of oestradiol
